According to patent US9605007B2, “2-amino-6-methyl-4,4a,5,6-tetrahydropyrano[3,4-d][1,3]thiazin-8a(8H)-yl-1,3-thiazol-4-yl amides” (Pfizer Inc., priority 2014, dated 2017):

What was measured:
pKa measurement = assay type: physicochemical; conditions: Measurement determined at Analyza

C[C@H]1C[C@H]2CSC(N)=N[C@@]2(c2cc(NC(=O)c3ccc(OC(F)F)cn3)ccc2F)CO1
pKa (pKa measurement): 8.3

N#Cc1ccc(C(=O)Nc2csc([C@]34COCC[C@H]3CSC(N)=N4)c2)nc1
Observed GSH adducts (GSH Incubation Assay; glutathione (50 mM) at 37° C. in buffer for 4 hours): Positive
formation of chemical adducts (GSH Incubation Assay; human liver microsomes in the presence of GSH): formation of chemical adducts
